# Assay outcomes: PubChem, National Center for Advancing Translational Sciences (NCATS)
# This is a sample that favours compounds with a hit; in the whole collection about 2.2% have one here.
# B2AR arrestin: beta2AR (human) beta-arrestin recruitment activity | P07550 | beta-arrestin recruitment to beta2AR, cell-based reporter | Potency, µM (titrated, usually from 46.1 µM), without a hit: at the highest dose activation, most hits filed as activators | 0.02% of 330,000 active;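 note: potency is the fitted concentration of half-maximal effect; 0% = DMSO controls and full agonism = EC100 isoproterenol or metaproterenol; nearly all actives have a fitted effect of over 65% in size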
# A549 tox: A549 cytotoxicity, counter-screen for Nrf2 inhibitors; 0.16% of 390,000 active; A549 ARE-Fluc cells, CellTiter-Fluor viability, 18-24 h; Potency, µM (series often up to 46 µM), inactives show at the top dose activity change, negative = cytotoxicity, usual class: inhibitors; note: potency is the fitted concentration of half-maximal effect; % is set by controls: 0 for no effect and ±100 for the full control effect
#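 A549 ARE_Fluc cells in 5% FBS OPTI-MEM were exposed to compounds in concentration-response for 18-24 h at 37 deg C. Viability was read by CellTiter-Fluor fluorescence (Ex 405/Em 525) after 30 min, before the luciferase read.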
# miR-21 reporter: miR-21 reporter, rising signal | AID 2288 | HeLa miR-21 FLuc reporter, luciferase, 48 h | 340,000 tested, under 10 active | Potency, µM (doses to about 38.3 µM), for inactives: at the top dose reporter change, positive = more light; active = well fitted rising curve with a large enough effect; inconclusive = small, poorly fitted or top-dose-only effect; inactive = no such curve, though single readings can be large or run the other way;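 note: % of control where 0% means no effect; miR-21 action dims this reporter so a rising signal means less miR-21 action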
#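 Luminescence from a firefly luciferase reporter carrying a miR-21 binding site downstream, stably expressed under a CMV promoter in HeLa cells that make miR-21 endogenously, reports miRNA modulation after 48 h compound exposure up to approximately 40uM final.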
# Nrf2 activator: activates Nrf2 signaling; AREc32 ARE-luciferase reporter (MCF7-derived line), luminescence, 24 h; Potency, µM (doses to about 46.1 µM), for inactives: at the highest dose activation, hits mostly activators; 0.31% of 410,000 active; AID 624171; note: potency is the fitted concentration of half-maximal effect; % of control where 0% means no effect; nearly all actives have a fitted effect of over 65% in size
#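 Steps: seed AREc32_Fluc cells (1000/well, 5% FBS OPTI-MEM); incubate overnight at 37 deg C; add 23 nL compound; incubate 24 hr; add Steady-Glo; hold 30 min RT; read luminescence.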
# Nrf2 inh: inhibitors of Nrf2 signaling; 2.1% of 360,000 active; A549 ARE-Fluc reporter, luciferase luminescence, 18-24 h; Potency, µM (series often up to 46 µM), for the others: at the top dose activity change, negative = inhibition, actives largely listed as inhibitors; AID 504444; note: potency is the fitted concentration of half-maximal effect; % is set by controls: 0 for no effect and ±100 for the full control effect; nearly all actives have a fitted effect of over 60% in size
#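 Reporter: ARE-Fluc in A549. Exposure: 18-24 h, 37 °C, 5% CO2, 5% FBS OPTI-MEM. Readouts: fluorescent cytotoxicity (CellTiter-Fluor), then luminescent Nrf2 signal after BugLite.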
# * = called active by the depositor; ? = inconclusive; . = no result given. Unless noted, calls come from the whole dose curve; as a rule, active = well fitted curve in the direction sought with a large enough effect; inconclusive = small, poorly fitted or top-dose-only effect, or another doubt; inactive = no such curve, though single readings can be large; an effect the other way counts as inactive or inconclusive.
# Labels used below – A = B2AR arrestin; B = A549 tox; C = miR-21 reporter; D = Nrf2 activator; E = Nrf2 inh
1	COc1ccccc1NS(=O)(=O)c1cc(NC(=O)c2ccc(Cl)nc2)ccc1Cl
  A: -0.2% | B: ? | C: ? | D: 0.0% | E: 23.1µM*
2	COc1ccccc1NS(=O)(=O)c1cc(NC(=O)c2ccncc2)ccc1N1CCCC1
  A: -0.2% | B: -16.3% | C: 2.8% | D: 2.0% | E: 20.6µM*
3	O=C(Nc1ccc(N2CCOCC2)c(S(=O)(=O)Nc2ccccc2Cl)c1)c1ccccc1
  A: -0.9% | B: -7.8% | C: . | D: -0.2% | E: 16.4µM*
4	COc1ccccc1NS(=O)(=O)c1cc(NC(C)=O)ccc1N1CCCCC1
  A: -0.3% | B: -0.9% | C: -5.8% | D: 0.2% | E: ?
5	O=S(=O)(c1ccc2c(c1)OCO2)N1CCN(c2nc(-c3cccs3)nc3ccccc23)CC1
  A: . | B: 9.0% | C: . | D: . | E: -17.8%
6	CC(C)NS(=O)(=O)c1ccc2nc(NC(=O)c3cncc(Br)c3)sc2c1
  A: . | B: -14.2% | C: -0.4% | D: 4.5% | E: .
7	COc1cc(F)c(S(=O)(=O)N2CCN(S(=O)(=O)c3ccco3)CC2)c(F)c1
  A: . | B: -4.0% | C: . | D: . | E: 9.3%
8	C/C(=N\N=C(N)N)c1ccc(Cl)cc1Cl
  A: -0.2% | B: -7.5% | C: 0.2% | D: 0.8% | E: -3.7%
9	C/C(=N\N=C(N)N)c1cc(Cl)ccc1Cl
  A: 0.0% | B: ? | C: 14.6% | D: 4.1% | E: 16.4µM*
10	COc1ccc(-c2nc3scc(CCNS(=O)(=O)c4cccs4)n3n2)cc1
  A: . | B: 5.9% | C: 17.5% | D: 3.4% | E: .
11	Cc1cc(C(=O)N2CCN(c3cccc(Cl)c3)CC2)c2c(C)nn(-c3ccccc3Cl)c2n1
  A: . | B: -26.8% | C: 26.8% | D: -0.2% | E: 18.4µM*
12	Cc1cc(C(=O)N2CCN(c3ccc(F)cc3)CC2)c2c(C)nn(-c3cccc(Cl)c3C)c2n1
  A: . | B: 0.7% | C: -4.1% | D: -0.7% | E: ?
13	Cc1ccc(NC(=O)C2CCCN2S(=O)(=O)c2ccc3nc(-c4ccccc4)[nH]c3c2)cc1F (centres undefined)
  A: . | B: -3.4% | C: -2.2% | D: -1.3% | E: 20.6µM*
14	O=C(NN1C(=O)C2C(c3ccccc3)C=CC(c3ccccc3)C2C1=O)c1cccc(Br)c1 (centres undefined)
  A: 6.1% | B: 6.8% | C: -4.8% | D: 11.2µM* | E: -8.3%
15	O=C1CN(S(=O)(=O)c2c(F)cccc2F)CCN1S(=O)(=O)c1ccc2c(c1)OCCO2
  A: . | B: -1.0% | C: . | D: . | E: -13.5%
16	Cn1c(N)c(C(C[N+](=O)[O-])c2c(F)cccc2Cl)c(=O)n(C)c1=O (centres undefined)
  A: -0.2% | B: -5.0% | C: 12.6% | D: 15.8µM* | E: 10.9%
17	Cc1ccc(NS(=O)(=O)c2cc3c(cc2-c2ccccc2)NC(=O)CO3)cc1C
  A: . | B: 2.6% | C: . | D: . | E: 2.1%
18	O=C(O)c1ccc2c(ccc3nn(-c4ccc(/C=C/c5ccc(-n6nc7ccc8cc(C(=O)O)ccc8c7n6)cc5[S+](=O)([O-])[O-])c([S+](=O)([O-])[O-])c4)nc32)c1
  A: . | B: ? | C: . | D: . | E: 0.0%
19	Brc1ccc(-c2csc3[n+]2CCCCC3)cc1
  A: -0.2% | B: -9.3% | C: 3.6% | D: 2.3% | E: 16.4µM*
20	Clc1ccc(-n2cc(-c3ccc(Br)cc3)[n+]3c2CCCCC3)cc1
  A: 0.6% | B: -5.3% | C: 16.9% | D: -0.7% | E: -12.9%
21	O=C(OCC#CCSc1nnc(-c2cccc3ccccc23)o1)c1ccc(SC(F)(F)F)cc1
  A: . | B: 2.1% | C: . | D: . | E: -9.5%
22	O=C(NCc1ccco1)C(Cc1ccccc1)N1C(=O)c2ccccc2C1=O (centres undefined)
  A: 0.3% | B: -1.0% | C: -4.5% | D: ? | E: ?
23	[N-]=[N+]=CC(=O)CNC(=O)[C@@H](Cc1ccccc1)N1C(=O)c2ccccc2C1=O
  A: 0.4% | B: 13µM* | C: 0.1% | D: -0.3% | E: .
24	Fc1cccc(Cl)c1Cn1nnc2c(NCc3ccncc3)ncnc21
  A: -0.5% | B: -0.8% | C: 7.6% | D: 0.9% | E: 23.1µM*
25	COc1cc2c(=O)n(Cc3ccccc3Cl)c(=O)n(CC(=O)Nc3ccc(C)c(C)c3)c2cc1OC
  A: . | B: 0.3% | C: 4.0% | D: -2.0% | E: 1.6%

# Ordered by value in B2AR arrestin (high to low): 3 from the list above.
nr	structure	B2AR arrestin	miR-21 reporter
23	[N-]=[N+]=CC(=O)CNC(=O)[C@@H](Cc1ccccc1)N1C(=O)c2ccccc2C1=O	0.4%	0.1%
8	C/C(=N\N=C(N)N)c1ccc(Cl)cc1Cl	-0.2%	0.2%
4	COc1ccccc1NS(=O)(=O)c1cc(NC(C)=O)ccc1N1CCCCC1	-0.3%	-5.8%

# More entries follow.
# Labels used below – A = B2AR arrestin; B = A549 tox; C = miR-21 reporter; D = Nrf2 activator; E = Nrf2 inh
26	O=C(NCCCc1cnc[nH]1)NCCCN(Cc1ccc(Cl)c(Cl)c1)c1ccc(Br)cn1
  A: . | B: -0.5% | C: . | D: . | E: 10.4%
27	CCC(=O)N(CCC(Cc1ccccc1)c1ccco1)Cc1ccco1 (centres undefined)
  A: 0.1% | B: -17.7% | C: 11.3% | D: 4.0% | E: 16.4µM*
28	Cn1c(=O)c2[nH]c(COc3ccccc3)nc2n(C)c1=O
  A: . | B: 22.1% | C: . | D: 2.5% | E: -20.0%
29	Cn1c(=O)c2[nH]c(Cc3cccc4ccccc34)nc2n(C)c1=O
  A: . | B: -8.0% | C: . | D: 3.0% | E: 20.6µM*
30	O=C(CNC(=O)c1ccccc1)OCC(=O)c1cccc2ccccc12
  A: . | B: 0.5% | C: . | D: . | E: 5.5%
31	Oc1ccc(NCc2ccccc2F)c2cccnc12
  A: . | B: -4.9% | C: . | D: . | E: -5.3%
32	Clc1ccc2c(N/N=C/c3cccc(Br)c3)ccnc2c1
  A: -3.6% | B: -10.9% | C: -14.9% | D: 3.4% | E: 18.3%
33	Clc1ccc2c(N/N=C/c3ccccc3Br)ccnc2c1
  A: -0.7% | B: ? | C: -5.3% | D: 5.2% | E: 10.3µM*
34	CC(C)(C)c1cnnn1-c1ccc(/C=N/Nc2ccc([N+](=O)[O-])cc2)cc1
  A: -0.7% | B: 16.4µM* | C: -4.8% | D: -1.6% | E: ?
35	COc1ccc(Cn2cc(C(=O)c3ccc(C)c(C)c3)c(=O)c3ccccc32)cc1
  A: . | B: ? | C: 15.6% | D: 0.6% | E: ?
36	CCOC(=O)c1ccccc1N/C=C/C(=O)c1ccccc1
  A: . | B: -1.2% | C: . | D: 10µM* | E: ?
37	Cc1ccc(C(=O)/C=C\Nc2ccc(C)c(C)c2)cc1
  A: -0.4% | B: -5.0% | C: -57.0% | D: 2.3% | E: ?
38	Cc1cc(N/C=C/C(=O)c2ccccc2)ccc1Br
  A: -0.2% | B: -3.7% | C: -64.7% | D: 5.62µM* | E: ?
39	O=C(/C=C/Nc1ccccc1)c1ccccc1
  A: -0.4% | B: -3.2% | C: -42.6% | D: 10µM* | E: ?
40	Cc1ccc2c(c1)-c1onc(C(=O)N(C)c3ccc(F)cc3)c1CO2
  A: . | B: 8.8% | C: -26.7% | D: 0.6% | E: 17.5%
41	CCN(CC)CC(C)(C)C(=O)/C=C/c1ccc(/C=C/C(=O)C(C)(C)CN(CC)CC)cc1
  A: . | B: 16.4µM* | C: . | D: -3.7% | E: 20.6µM*
42	Cc1ccccc1OCC(=O)N(Cc1ccc(N(C)C)cc1)CC1CCCO1 (centres undefined)
  A: . | B: 1.0% | C: ? | D: 3.7% | E: -24.0%
43	CSc1cccc(NC(=O)C2CCN(S(=O)(=O)c3ccc(F)cc3)CC2)c1
  A: . | B: -5.7% | C: 24.9% | D: 0.9% | E: 14.6µM*
44	CSc1cccc(NC(=O)C2CCN(S(=O)(=O)c3ccc4c(c3)NC(=O)CO4)CC2)c1
  A: 0.0% | B: -11.5% | C: 20.0% | D: 0.3% | E: 23.1µM*
45	O=C(Nc1cccc(S(=O)(=O)c2cccc(NC(=O)C3CC3)c2)c1)C1CC1
  A: -0.2% | B: -6.7% | C: 14.2% | D: -0.2% | E: 8.2µM*
46	CSc1cccc(NC(=O)C2CCCN(S(=O)(=O)c3ccc(F)cc3)C2)c1 (centres undefined)
  A: -0.2% | B: -10.9% | C: 24.8% | D: -0.3% | E: .
47	O=C(COC(=O)C12CC3CC(CC(Cl)(C3)C1)C2)NCc1ccco1
  A: . | B: -1.7% | C: . | D: . | E: 2.3%
48	N#Cc1ccc(S(=O)(=O)N2CCN(c3nc(-c4ccccc4)nc4ccccc34)CC2)cc1
  A: . | B: -1.7% | C: . | D: . | E: 1.8%
49	Oc1ccc(N=Cc2ccc(OCc3ccccc3)cc2)cc1
  A: ? | B: ? | C: -3.5% | D: 14.1µM* | E: ?
50	CCc1ccc(Cn2c(CNS(=O)(=O)c3ccc4c(c3)CCCC4)nc3cccnc32)cc1
  A: . | B: -5.1% | C: -5.6% | D: 5.4% | E: .

# Grouped by structure: the entries above with a nitro group on carbon
# Labels used below – A = B2AR arrestin; B = A549 tox; C = miR-21 reporter; D = Nrf2 activator; E = Nrf2 inh
16	Cn1c(N)c(C(C[N+](=O)[O-])c2c(F)cccc2Cl)c(=O)n(C)c1=O (centres undefined)
  A: -0.2% | B: -5.0% | C: 12.6% | D: 15.8µM* | E: 10.9%
34	CC(C)(C)c1cnnn1-c1ccc(/C=N/Nc2ccc([N+](=O)[O-])cc2)cc1
  A: -0.7% | B: 16.4µM* | C: -4.8% | D: -1.6% | E: ?
